## Curated experimental data: melting point values

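OPERA's authors assembled the values from existing databases and did not measure them anew. One number stands for a compound and property, with no spread given. How each value was measured is not recorded, so precision varies. Where a salt, mixture or single isomer is drawn, the source does not say that exactly this form was tested. Some upstream entries may be estimates or bounds without being marked so.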

Melting points are in °C.
"–" marks a cell with nothing listed here.
The databases behind each value are named after "via".

compound	name	mp (°C)	via
CCOC(=O)c1c(N)sc2ccccc12	ethyl 2-amino-1-benzothiophene-3-carboxylate	106	OCHEM
O=c1nc[nH]c2cc(F)c([N+](=O)[O-])cc12	7-Fluoro-6-nitroquinazolin-4(3H)-one	293	OCHEM
NNC(=O)C1COc2ccccc2O1 (stereo unspecified)	2,3-dihydro-1,4-benzodioxine-2-carbohydrazide	112	OCHEM
CCCCCCCCN(CCCCCCCC)CCCCCCCC	Trioctylamine	-36.8	OCHEM, PubChem
Cc1nn(-c2ccccc2)c(N2CCCCC2)c1C=O	–	76	OCHEM
Cn1c(-c2ccncc2)n[nH]c1=S	Pyridine, 4-(3-mercapto-4-methyl-5-(4H-1,2,4-triazolyl))-	122	OCHEM
O=C(Cc1ccc(Cl)cc1)c1ccccc1	Ethanone, 2-(4-chlorophenyl)-1-phenyl-	133	OCHEM
O=S(=O)(CCCl)c1ccc(Br)cc1	Sulfone, p-bromophenyl 2-chloroethyl	111	OCHEM
CC(C)(C)N(NC(=O)c1ccccc1)C(=O)c1cccc(C#N)c1	N'-Benzoyl-N-tert-butyl-3-cyanobenzohydrazide	174	OCHEM
O=C([O-])CSSCC(=O)[O-].[NH4+].[NH4+]	Acetic acid, 2,2'-dithiobis-, ammonium salt (1:2)	170	eChemPortal
CCN(CC)S(=O)(=O)c1ccc(O)c(N)c1	3-amino-N,N-diethyl-4-hydroxybenzenesulfonamide	75	OCHEM
Cc1ccc2c(c1)C(C)(C)C(C)CC2(C)C (stereo unspecified)	Naphthalene, 1,2,3,4-tetrahydro-1,1,2,4,4,7-hexamethyl-	64.4	eChemPortal
COc1cc(C(=O)Nc2ccc3nn(C4CCCCC4)nc3c2)cc(OC)c1OC	–	130	OCHEM
CC(C)C(=O)Nc1nc(-c2ccc(O)cc2O)cs1	–	244.7	eChemPortal
Nc1ccc(OCc2ccccc2)nc1	6-(benzyloxy)pyridin-3-amine	43	OCHEM
O=C(O)CCc1nc2ccccc2o1	3-(1,3-benzoxazol-2-yl)propanoic acid	111	OCHEM
Cc1nn(CC(=O)O)c(C)c1[N+](=O)[O-]	(3,5-dimethyl-4-nitro-1H-pyrazol-1-yl)acetic acid	180	OCHEM
O=c1c2ccccc2c2ccc3sc4ccccc4c4ccc1c2c34	14H-Anthra[2,1,9-mna]thioxanthen-14-one	314	eChemPortal
COc1ccc(-c2nn(-c3ccccc3)cc2C=O)cc1	3-(4-Methoxyphenyl)-1-phenyl-1H-pyrazole-4-carbaldehyde	136	OCHEM
Nc1c(F)cc(O)cc1F	4-amino-3,5-difluorophenol	148.5	OCHEM
O=C(NCc1ccccc1)c1ccccc1O	N-Benzyl-2-hydroxybenzamide	80	OCHEM
O=C1OCC(F)O1 (stereo unspecified)	1,3-Dioxolan-2-one, 4-fluoro-	22.15	eChemPortal
Cc1ccc(S(=O)(=O)N(C)c2ccc(C(=O)O)cc2)cc1	4-{methyl[(4-methylphenyl)sulfonyl]amino}benzoic acid	189	OCHEM
COC(=O)c1cc(Cl)c(N)cc1OC	methyl 4-amino-5-chloro-2-methoxybenzoate	125	OCHEM
CCN(CC)S(=O)(=O)c1cccc(C(=O)O)c1	3-(Diethylsulfamoyl)benzoic acid	165	OCHEM
O=[N+]([O-])c1c2ccccc2c2ccc3cccc4ccc1c2c43	Benzo[a]pyrene, 6-nitro-	250.8	PubChem
Cc1n[nH]c(C)c1S(=O)(=O)Cl	3,5-Dimethyl-1H-pyrazole-4-sulfonyl chloride	62.5	OCHEM
CC1=Nc2ccc3ccccc3c2C1(C)C	1,1,2-Trimethyl-1H-benzo[e]indole	116.5	OCHEM
Cc1cc(=O)oc2cc(OCC(=O)[O-])c(O)cc12.[Na+]	Sodium methylesculetin acetate	236	eChemPortal
c1scc2c1OCCO2	Thieno[3,4-b]-1,4-dioxin, 2,3-dihydro-	11.7	eChemPortal

Again, the 4 entries with the lowest mp:

compound	name	mp (°C)	via
CCCCCCCCN(CCCCCCCC)CCCCCCCC	Trioctylamine	-36.8	OCHEM, PubChem
c1scc2c1OCCO2	Thieno[3,4-b]-1,4-dioxin, 2,3-dihydro-	11.7	eChemPortal
O=C1OCC(F)O1 (stereo unspecified)	1,3-Dioxolan-2-one, 4-fluoro-	22.15	eChemPortal
Nc1ccc(OCc2ccccc2)nc1	6-(benzyloxy)pyridin-3-amine	43	OCHEM

Source: data files of OPERA 2.9 (Mansouri et al.), github.com/kmansouri/OPERA.